Assay [1] can be described thus: APR_HepG2_CellCycleArrest_24hr: Apredica 24-hour HepG2 Assay for Cell Cycle Arrest (AID 2282905).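 Also: cell cycle arrest scored as ratio of 2N to 4N nuclear DNA content.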 The following applies: imaging, actives raise or lower the signal. The essentials:
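Compounds (0.39 to 200 uM, final DMSO 0.5% v/v) are applied to HepG2 cells for 24 hours; cells are then fixed, permeabilized and nuclei labeled with Hoechst 33342. Automated imaging measures DNA content, and activity is fitted in both directions against DMSO.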

Assay [2] is described as follows: APR_HepG2_NuclearSize_24hr: Apredica 24-hour HepG2 Assay for Nuclear Size (AID 2282907). The following applies: high-content imaging, actives raise or lower the signal. The essentials: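 Nuclear size is measured by fluorescence high-content imaging of Hoechst-labelled HepG2 nuclei after 24 hr of treatment (0.39–200 uM, 0.5% DMSO). Cells are fixed in 3.7% formaldehyde before staining, and DMSO serves as the baseline for bidirectional curve fitting.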

Assay [3] is described as follows: APR_HepG2_CellLoss_24hr: Apredica 24-hour HepG2 Assay for Cell Loss (AID 2282908).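 As to AC50: fit in both directions so a hit may be cell loss or gain.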 The following applies: high-content imaging. The essentials: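 Nuclear count serves as the viability measure: treated cells are fixed, permeabilized and labelled with Hoechst 33342, and six images per well are analysed to identify valid nuclei. Doses span 0.39–200 uM, and activity in either direction is scored against DMSO.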

The nature of assay [4]: APR_HepG2_MicrotubuleCSK_24hr: Apredica 24-hour HepG2 Assay for Microtubule CSK Stabilty (AID 2282909). The following applies: HepG2 microtubule cytoskeleton imaging, actives raise or lower the signal. The essentials:
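Compounds were applied to HepG2 cells for 24 hours across 0.39–200 uM in duplicate, with final DMSO at 0.5% v/v. Fixed, permeabilized cells were labeled for alpha-tubulin and nuclei, and tubulin fluorescence was quantified by imaging, fitted bidirectionally against DMSO.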

Assay [5] in a line: APR_HepG2_MitoticArrest_24hr: Apredica 24-hour HepG2 Assay for Mitotic Arrest (AID 2282910). The following applies: high-content imaging, actives raise or lower the signal. The essentials:
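High-content imaging of fixed HepG2 cells labeled with Hoechst 33342 and anti-phospho-histone H3, after 24 h treatment. Ten concentrations 0.39 to 200 uM in duplicate, final DMSO 0.5%; changes fitted both directions relative to DMSO.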

A short description of assay [6]: APR_HepG2_MitoMembPot_24hr: Apredica 24-hour HepG2 Assay for Mitochondrial Membrane Potential (AID 2282911). The following applies: imaging, actives raise or lower the signal. The essentials: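 HepG2 cells exposed 24 h to 0.39–200 uM compounds in duplicate, 0.5% v/v DMSO final. MitoTracker Red CMXRos 250 nM loaded 30 min before formaldehyde fixation; high-content imaging at 20x, bidirectional fit versus DMSO.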

Assay [7] is described as follows: APR_HepG2_MitoMass_24hr: Apredica 24-hour HepG2 Assay for Mitochondrial Mass (AID 2282912). The following applies: high-content imaging, actives raise or lower the signal. The essentials:
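After 24 hr of treatment at 0.39 to 200 uM, HepG2 cells take up 250 nM MitoTracker Red CMXRos for 30 min and are then fixed with 3.7% formaldehyde. Per-well images are quantified, and any change in either direction is scored against solvent.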

A short description of assay [8]: APR_HepG2_p53Act_24hr: Apredica 24-hour HepG2 Assay for p53 Activation (AID 2282913).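 Also: p53 protein immunofluorescence averaged per cell in HepG2 with Hoechst nuclei.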 The following applies: high-content imaging, actives raise or lower the signal. The essentials:
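HepG2 cells exposed 24 h to compounds at 0.39–200 uM in duplicate, 0.5% v/v DMSO final; fixed, permeabilized, stained with anti-p53 antibody and Hoechst 33342; fluorescence imaging; bidirectional curve fit versus DMSO.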

A short description of assay [9]: APR_HepG2_CellCycleArrest_72hr: Apredica 72-hour HepG2 Assay for Cell Cycle Arrest (AID 2282914). The following applies: high-content imaging, actives raise or lower the signal. The essentials:
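HepG2 cells exposed 72 h in duplicate to 0.39–200 uM compound, 0.5% DMSO final. Formaldehyde-fixed, Hoechst 33342-stained nuclei imaged at 20x, six fields per well; DNA content per valid cell quantified by cell-cycle image analysis, bidirectional fit versus DMSO.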

A short description of assay [10]: APR_HepG2_CellLoss_72hr: Apredica 72-hour HepG2 Assay for Cell Loss (AID 2282915). The following applies: high-content imaging.
A short description of assay [11]: APR_HepG2_P-H2AX_72hr: Apredica 72-hour HepG2 Assay for H2AX Phosphorylation (AID 2282916).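 Also: phospho-histone H2A.x immunostain intensity per cell marking DNA damage.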 The following applies: imaging, actives raise or lower the signal. The essentials: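 Human hepatoma HepG2 cells are dosed across ten concentrations (0.39 to 200 uM, 0.5% v/v DMSO) and incubated 72 hr. Phospho-histone H2A.x is then detected by antibody staining alongside c-Jun and Hoechst, and quantified by automated fluorescence imaging.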

Assay [12] is described as follows: APR_HepG2_MitoMembPot_72hr: Apredica 72-hour HepG2 Assay for Mitochondrial Membrane Potential (AID 2282917). The following applies: imaging, actives raise or lower the signal. The essentials: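 Membrane potential read by MitoTracker Red CMXRos (250 nM, 30 min, pre-fixation) fluorescence imaging of HepG2 after 72 hr exposure. Ten concentrations, 0.39–200 uM, duplicate wells, 0.5% DMSO; fitted in both directions against DMSO baseline.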

Assay [13] is described as follows: APR_HepG2_MitoticArrest_72hr: Apredica 72-hour HepG2 Assay for Mitotic Arrest (AID 2282918). The following applies: high-content imaging, actives raise or lower the signal. The essentials: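 HepG2 cells treated 72 h at 0.39–200 uM, 0.5% DMSO final; formaldehyde-fixed, stained with Hoechst 33342 and phospho-histone H3 antibody, imaged by high-content fluorescence; bidirectional fit versus DMSO.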

Assay [14] can be described thus: APR_HepG2_MicrotubuleCSK_72hr: Apredica 72-hour HepG2 Assay for Microtubule CSK Stabilty (AID 2282919). The following applies: HepG2 microtubule cytoskeleton, high-content imaging, actives raise or lower the signal. The essentials:
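High-content imaging of alpha-tubulin staining in fixed HepG2 cells after 72 hr treatment with ten concentrations from 0.39 to 200 uM (0.5% DMSO). Fitting was bidirectional against DMSO; taxol served as positive control.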

Assay [15] in a line: APR_HepG2_P-H2AX_24hr: Apredica 24-hour HepG2 Assay for H2AX Phosphorylation (AID 2282920). The following applies: high-content imaging, actives raise or lower the signal. The essentials: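 HepG2 cells dosed 24 h at 0.39–200 uM (10 points, duplicate, 0.5% DMSO final). Formaldehyde-fixed and permeabilized, then immunostained for phospho-H2A.x with Hoechst. Fluorescence quantified by high-content imaging, fitted bidirectionally versus DMSO.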

Assay [16] is described as follows: APR_HepG2_StressKinase_72hr: Apredica 72-hour HepG2 Assay for Stress Kinase (AID 2282921). The following applies: HepG2 stress kinase (phospho-c-Jun) imaging, actives raise or lower the signal. The essentials:
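After a 72 h compound treatment spanning 0.39 to 200 uM, formaldehyde-fixed cells are labelled for phosphorylated c-Jun and nuclei, imaged by automated fluorescence microscopy, and activity is fitted in both directions relative to DMSO controls.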

Assay [17] is described as follows: APR_HepG2_StressKinase_24hr: Apredica 24-hour HepG2 Assay for Stress Kinase (AID 2282922). The following applies: HepG2 stress kinase (phospho-c-Jun) imaging, actives raise or lower the signal. The essentials: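 High-content imaging of phospho-c-Jun immunofluorescence in fixed, permeabilized HepG2 cells after 24 h dosing. Ten concentrations, 0.39 to 200 uM, run in duplicate at 0.5% v/v DMSO; gain or loss of signal versus DMSO.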

The nature of assay [18]: APR_HepG2_p53Act_72hr: Apredica 72-hour HepG2 Assay for p53 Activation (AID 2282923).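 Also: average cellular p53 protein immunofluorescence intensity in HepG2 cells.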 The following applies: high-content imaging, actives raise or lower the signal. The essentials:
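Imaging-based endpoint: after 72 hr compound exposure (up to 200 uM, 0.5% DMSO), fixed and permeabilized monolayers were labelled with anti-p53 antibody and imaged; signal change in either direction was fitted relative to DMSO controls.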

Assay [19] can be described thus: APR_HepG2_MitoMass_72hr: Apredica 72-hour HepG2 Assay for Mitochondrial Mass (AID 2282924).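 Also: MitoTracker Red CMXRos stain intensity per cell imaged as mitochondrial mass.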 The following applies: high-content imaging, actives raise or lower the signal. The essentials:
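Readout is imaged MitoTracker Red (250 nM, 30 min, pre-fixation) signal, fitted bidirectionally against DMSO baseline. Human HepG2 liver cells received compound 0.39–200 uM in duplicate for 72 hr, final DMSO 0.5%.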

Assay [20] is described as follows: APR_HepG2_StressKinase_1hr: Apredica 1-hour HepG2 Assay for Stress Kinase (AID 2282906). The following applies: HepG2 stress kinase (phospho-c-Jun) imaging, actives raise or lower the signal. The essentials: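 High-content imaging of phospho-c-Jun immunostaining (with Hoechst nuclear identification) after a 1 h exposure of HepG2 cells to 10 concentrations from 0.39 to 200 uM, final DMSO 0.5%. Fitted bidirectionally against DMSO.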

Where “and” joins values, the source holds several entries; their conditions need not be identical. Equal values may be shown once. The entries are a selection whose mix differs from that of the whole data set. More than one record can exist for a structure, and the calls need not agree. Calls of active or inactive are those of the source. The calls were made as follows: active = hit-call score of the fitted dose curve at least 0.9, where 1 is the maximum; inactive = score below 0.9.

`CN(C(=O)Cc1cccc2occc12)[C@H]1CC[C@@]2(CCCO2)C[C@@H]1N1CCCC1`: the compound was called inactive in assay [1], in assay [2], in [3], in [4], in [5] and in assay [6]. For the same compound, the result in assay [7], in assay [8], in assay [9], in [10], in assay [11] and in assay [12] was inactive. The compound was classed as inactive in [13], in [14], in assay [15], in [16], in assay [17] and in assay [18]. In addition, the compound was classed as inactive in assay [19].

With `Cc1cc([N+](=O)[O-])cc([N+](=O)[O-])c1O`, the call in assay [2], in assay [4], in assay [6], in [12], in assay [15] and in assay [16] was inactive. Further, the outcome in [17] was inactive. Moreover, the AC50 in assay [3] is active: 64 µM; in [5], active: 100 µM; in assay [7], active: 158 µM; in [8], active: 102 µM; in [10] it was active: 66.1 µM; in [11], active: 104 µM. The half-maximal activity concentration (AC50) in assay [13] is active: 81.7 µM; in assay [14], active: 86.7 µM; in assay [18], active: 98.6 µM; in assay [19] it was active: 104 µM.

In the case of `CC(C)OP(=S)(OC(C)C)SCCNS(=O)(=O)c1ccccc1`, the AC50 in assay [1] was active: 165 µM; in assay [20] it was active: 38.8 µM; in [2], active: 115 µM and active: 111 µM; in assay [3] it was active: 48.2 µM and active: 107 µM and active: 56.3 µM; in [4] it was active: 48 µM and active: 166 µM; in [5], active: 63.3 µM and active: 179 µM. In addition, the AC50 in [6] is active: 128 µM and active: 8.44 µM and active: 104 µM; in assay [7] it was active: 104 µM; in [15] it was active: 113 µM and active: 110 µM; in assay [17], active: 121 µM and active: 119 µM; in assay [19], active: 92.8 µM. Moreover, the call in assay [1], in assay [20], in assay [2], in assay [4], in [5] and in [7] was inactive. Besides, the outcome in assay [9], in assay [11], in assay [12], in assay [13], in assay [15] and in [16] was inactive. In addition, the compound was classed as inactive in [17] and in [19].

As to `O=C1C2CC=CCC2C(=O)N1SC(Cl)(Cl)C(Cl)Cl` (centres undefined), the result in assay [1], in assay [20], in assay [2], in assay [4], in assay [5] and in assay [6] was inactive. The outcome in assay [7], in assay [8], in assay [9], in [11], in assay [15] and in assay [16] was inactive. Moreover, the compound was called inactive in assay [17] and in [18]. The AC50 in [12] was active: 99.7 µM; in assay [13], active: 100 µM; in assay [14], active: 18.4 µM; in [19] it was active: 20.8 µM.

The AC50 is the concentration at which the activity in the assay is half-maximal.
